The list shows a part of the results, in another mix than the full data. Active and inactive are the calls of the source. No stated cut-off is given here; in the data, active means activity change above about 30% (passing the limit was not always enough); inactive means the rest.
Biological target: Hepatocyte nuclear factor 4-alpha (Homo sapiens) (UniProt P41235)
Assay: HNF4-alpha DNA association modulation – biochemical, fluorescence polarization, FITC-DNA, primary screen (AID 1224865)
Conditions: HNF4a-FITC DNA binding, 1 h, at 10 µM, hits give high values

By UniProt entry, the sequences of proteins in these tests, tags left out. Where a name states a change or a piece, a line headed by the entry shows the natural chain unless it says otherwise.
UniProt P41235: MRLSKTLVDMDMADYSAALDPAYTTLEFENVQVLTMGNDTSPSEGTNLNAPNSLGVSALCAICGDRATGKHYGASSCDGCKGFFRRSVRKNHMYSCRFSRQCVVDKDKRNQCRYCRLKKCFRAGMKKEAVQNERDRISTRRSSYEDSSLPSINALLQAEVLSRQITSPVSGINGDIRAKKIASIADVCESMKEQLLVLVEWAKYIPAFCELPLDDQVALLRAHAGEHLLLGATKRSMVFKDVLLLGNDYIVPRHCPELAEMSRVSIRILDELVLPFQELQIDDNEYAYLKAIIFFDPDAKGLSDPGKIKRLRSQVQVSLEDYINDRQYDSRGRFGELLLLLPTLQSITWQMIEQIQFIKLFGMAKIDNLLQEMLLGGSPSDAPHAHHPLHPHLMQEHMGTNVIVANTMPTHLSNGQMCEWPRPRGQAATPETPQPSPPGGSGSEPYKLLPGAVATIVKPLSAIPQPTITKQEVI

Compound | activity change
Nc1cccc2c([As](=O)(O)O)cccc12 | active: 56.4%
